{"source": "patent US20230241164A1", "about": "“C-Type Natriuretic Peptides and Methods Thereof in Treating Cancer” (PHARMAIN CORPORATION, priority 2020, published 2023)", "origin": "cited, not measured here", "details": "as the dose increases to the desired therapeutic level; cited from earlier work"}
{"sequence": "PGQEHPNARKYKGANKKGLSKGCFGLKLDRIGSMSGLGC [BMN-111]", "values": [{"measurement": "arterial blood pressure (BP)", "result": "drops"}, {"measurement": "heart rate (HR)", "result": "increases"}]}
